# Test system: Alpha-1D/Alpha-1A adrenergic receptor (Homo sapiens)
# Experiment: Ratio of binding affinity towards Alpha1d to Alpha-1A
row,Ratio,Structure (SMILES)
1,50,CC(C)Oc1ccccc1N1CCN(CC(O)CNC(=O)c2ccc3c(c2)C(=O)N(c2ccc(N(C)C)cc2)C3=O)CC1 (stereo unspecified)
2,8,CC(C)Oc1ccccc1N1CCN(C[C@H](O)CNC(=O)c2ccc3c(c2)C(=O)N(c2cccc(F)c2)C3=O)CC1
3,25,COc1ccccc1N1CCN(CC(O)CNC(=O)c2ccc3c(c2)C(=O)N(c2cccc(F)c2)C3=O)CC1 (stereo unspecified)
4,81,Cc1cccc(N2C(=O)c3ccc(C(=O)NCC(O)CN4CCN(c5ccccc5OC(C)C)CC4)cc3C2=O)c1 (stereo unspecified)
5,595,COC(CNC(=O)c1ccc2c(c1)C(=O)N(c1cccc(F)c1)C2=O)CN1CCN(c2ccccc2OC(C)C)CC1 (stereo unspecified)
6,186,CC(C)Oc1ccccc1N1CCN(C[C@@H](O)CNC(=O)c2ccc3c(c2)C(=O)N(c2cccc(F)c2)C3=O)CC1
7,186,Cc1ccc(N2C(=O)c3ccc(C(=O)NC[C@H](O)CN4CCN(c5ccccc5OC(C)C)CC4)cc3C2=O)cc1

# Further lines, the compound ahead of its results:
row,Structure (SMILES),Ratio
1,CC(C)Oc1ccccc1N1CCN(CC(O)CNC(=O)c2ccc3c(c2)C(=O)N(c2ccc(F)cc2)C3=O)CC1 (stereo unspecified),74
2,CC(C)Oc1ccccc1N1CCN(CC(O)CNC(=O)c2ccc3c(c2)C(=O)N(c2ccc(C(C)(C)C)cc2)C3=O)CC1 (stereo unspecified),25
3,COc1ccccc1N1C(=O)c2ccc(C(=O)NCC(O)CN3CCN(c4ccccc4OC(C)C)CC3)cc2C1=O (stereo unspecified),49
4,CC(C)Oc1ccccc1N1CCN(CC(O)CNC(=O)c2ccc3c(c2)C(=O)N(c2ccc(O)cc2)C3=O)CC1 (stereo unspecified),32
5,CC(C)Oc1ccccc1N1CCN(CC(O)CNC(=O)c2ccc3c(c2)C(=O)N(c2cccc(F)c2)C3=O)CC1 (stereo unspecified),50
6,Cc1ccc(N2C(=O)c3ccc(C(=O)NCC(O)CN4CCN(c5ccccc5OC(C)C)CC4)cc3C2=O)cc1 (stereo unspecified),94
7,CC(C)Oc1ccccc1N1CCN(CCCNC(=O)c2ccc3c(c2)C(=O)N(c2cccc(F)c2)C3=O)CC1,54
8,CC(C)Oc1ccccc1N1CCN(CC(O)CNC(=O)c2ccc3c(c2)C(=O)N(c2ccc(Cl)cc2)C3=O)CC1 (stereo unspecified),58
9,CC(C)Oc1ccccc1N1CCN(CC(O)CNC(=O)c2ccc3c(c2)C(=O)N(c2ccc([N+](=O)[O-])cc2)C3=O)CC1 (stereo unspecified),21
10,CC(C)Oc1ccccc1N1CCN(CCCNC(=O)c2ccc3c(c2)C(=O)N(c2ccc(N(C)C)cc2)C3=O)CC1,83
11,CC(C)Oc1ccccc1N1CCN(C[C@@H](O)CNC(=O)c2ccc3c(c2)C(=O)N(c2ccc(O)cc2)C3=O)CC1,298
12,COc1ccc(N2C(=O)c3ccc(C(=O)NCCCN4CCN(c5ccccc5OC(C)C)CC4)cc3C2=O)cc1,145
13,CCOc1ccccc1N1CCN(CC(O)CNC(=O)c2ccc3c(c2)C(=O)N(c2cccc(F)c2)C3=O)CC1 (stereo unspecified),32
14,CC(C)Oc1ccccc1N1CCN(C[C@@H](O)CNC(=O)c2ccc3c(c2)C(=O)N(c2ccc(N(C)C)cc2)C3=O)CC1,158

# Source: ChEMBL document CHEMBL1133729, “Design, synthesis, and structure-activity relationships of phthalimide-phenylpiperazines: a novel series of potent and selective alpha(1)(a)-adrenergic receptor antagonists” (J Med Chem, 2000)
